## Yeast mating assay B: variants of the scFv Ab-14

Binding partner: SARS-CoV-2 spike HR2 peptide, sequence PDVDLGDISGINAS.

The variants keep the heavy chain, the linker and the frameworks of Ab-14 (scFv order VH, a 15-residue (Gly4Ser)3 linker, VL).
VH: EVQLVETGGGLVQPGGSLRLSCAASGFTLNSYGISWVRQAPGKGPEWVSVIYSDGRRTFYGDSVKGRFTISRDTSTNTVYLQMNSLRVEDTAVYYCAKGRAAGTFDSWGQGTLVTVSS
VL: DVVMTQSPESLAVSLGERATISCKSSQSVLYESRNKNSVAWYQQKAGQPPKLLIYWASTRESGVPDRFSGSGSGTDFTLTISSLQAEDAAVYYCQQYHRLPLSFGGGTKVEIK

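Phage display of a naive human antibody library on the peptide gave the parent. Designed CDR sequences, proposed from the first random library and measured here. Several design methods are mixed in this list. Affinity was read by AlphaSeq, a pooled yeast mating assay with surface-displayed partners. Pairs that bind mate more often; barcode pairs of the diploids are counted by sequencing. The ratio of observed to expected reads was calibrated, replicate by replicate, on BCL2-family standards whose Kd was known from biolayer interferometry. The assay was run in six technical replicates.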

The parent's light chain CDRs are KSSQSVLYESRNKNSVA, WASTRES, QQYHRLPLS; each variant's own CDRs replace them letter for letter. Variants here have at most six changes. Kd is apparent (estimated from mating counts) and averaged on the log scale over replicates with a signal. Smaller is tighter. "nd" marks a missing value. The strain was present, yet no cells mated with the target were sequenced in any replicate, which points to weak or no binding. The list is sorted by this average, lowest first, undetected variants last. Where one sequence has several entries in the source, the replicates are pooled. The authors averaged sequences with at least three values out of six and counted those with two or fewer as poor binders. Nonspecific signal, from three strains lacking the peptide, appeared in 4% of pairings of all light chain designs, centred on 430 nM (5% of these signals below 38 nM); values are not corrected for it. Also given: how often the same scFv was detected with the empty control strains. A sequence measured in both rounds can read differently, since the two assays cover different ranges.

- KLEQSINYESRNKNSVA, NASTRES, QQYHRLPLS: 240 pM (6 of 6 replicates; controls 0 of 18)
- KFSQGVLYESRTKNSVA, NASTRES, QQYHRLPLS: 370 pM (6 of 6 replicates; controls 2 of 18)
- KLSQSVLYESRNKNSVA, EAQTRES, QQYHRLPLS: 390 pM (6 of 6 replicates; controls 0 of 18)
- KVSQSMLYESRNKNNVA, NASTRES, QQYHRLPLS: 520 pM (6 of 6 replicates; controls 1 of 18)
- KMEQGVLYESRNKGSVA, HASVRES, QQYHRLPLS: 570 pM (6 of 6 replicates; controls 1 of 18)
- KLSQSELYESRNKNSVA, EASTREL, QQYHRLPLS: 580 pM (6 of 6 replicates; controls 0 of 18)
- KSSQSVAMESRNKNSVA, DASTRES, QQYHRLPLS: 660 pM (6 of 6 replicates; controls 1 of 18)
- KSSWSWLYESRNKNSVA, GASTREN, QQYHRLPLS: 710 pM (6 of 6 replicates; controls 0 of 18)
- HLSGVVLYESRNKNSVA, NASTRES, QQYHRLPLS: 780 pM (6 of 6 replicates; controls 0 of 18)
- KLSYSWLYESRNKNSVA, EASTRES, QQYHRLPLS: 810 pM (6 of 6 replicates; controls 0 of 18)
- KQSQSVLYESRNKNSVA, DASTRES, QQYFRLPLS: 840 pM (6 of 6 replicates; controls 1 of 18)
- KHSQSVLYEWRNKNSVA, DASTRES, QQYHRLPLS: 880 pM (6 of 6 replicates; controls 1 of 18)
- HLSQSELYESRNKNSVA, NASYRES, QQYHRLPLS: 1.0 nM (6 of 6 replicates; controls 0 of 18)
- KLSQSNLYESRNKNSVA, NASQREV, QQYHRLPLS: 1.0 nM (6 of 6 replicates; controls 1 of 18)
- KSSISGLYESRTKNSVA, EASTRES, QQYHRLPLS: 1.1 nM (6 of 6 replicates; controls 0 of 18)
- KLSQSELYESRMKNSVA, NASQRES, QQYHRLPLS: 1.1 nM (6 of 6 replicates; controls 1 of 18)
- KLLQSVLYESRDKNNVA, HASTRED, QQYHRLPLS: 1.2 nM (6 of 6 replicates; controls 1 of 18)
- KSMQGVLYESRNKNSVA, GASTRES, QQYHRLPLH: 1.2 nM (6 of 6 replicates; controls 0 of 18)
- KVSISYLYESRNKNSVA, AASTRES, QQYHRLPLS: 1.4 nM (6 of 6 replicates; controls 1 of 18)
- KSSWSVLHESRNKNSVA, DASTRSS, QQYHRLPLS: 1.6 nM (6 of 6 replicates; controls 1 of 18)
- KSSQSVLGEARNKNSVA, DASTRES, QQYHRLPLS: 1.7 nM (6 of 6 replicates; controls 0 of 18)
- KFSQKYLYEGRTKNSVA, NASTRES, QQYHRLPLS: 1.8 nM (6 of 6 replicates; controls 0 of 18)
- KSRQSWLYESRNFNSVA, GASTRES, QQYHRLPLS: 2.0 nM (6 of 6 replicates; controls 1 of 18)
- KLSQSWLYESRMKNSVA, NASTRLS, QQYHRLPLS: 2.2 nM (6 of 6 replicates; controls 3 of 18)
- KLPNSTLYESRQKNSVA, EASTRES, QQYHRLPLS: 2.3 nM (6 of 6 replicates; controls 0 of 18)
- KLSQSFLYESRWKNSVA, GASTRES, QQYHRLPLS: 2.6 nM (6 of 6 replicates; controls 0 of 18)
- KLEQSQLYESRNKNSVA, NASLRES, QQYHRLPLS: 2.7 nM (6 of 6 replicates; controls 2 of 18)
- KSSQSFLYESRNVNSVA, GASTRCS, QQYHRLPLS: 3.0 nM (6 of 6 replicates; controls 0 of 18)
- KSSQSVPYESRNKNSVA, NASTRES, QQYHRLPLS: 3.5 nM (12 of 12 replicates; controls 2 of 36)
- HLSGSVLYESRNKNSVA, NASTRES, QQYHRLPLS: 4.0 nM (6 of 6 replicates; controls 0 of 18)
- HSSPSVYYESRNKNSVA, NASTRHS, QQYHRLPLS: 4.1 nM (6 of 6 replicates; controls 0 of 18)
- KLPQSVKYESRNKNSVA, HASTRED, QQYHRLPLS: 5.0 nM (6 of 6 replicates; controls 0 of 18)
- KVSQSWLKESRNKNSVA, EASTRCS, QQYHRLPLS: 6.3 nM (6 of 6 replicates; controls 1 of 18)
- MSSQSSLYESRNKNSVA, KADTRTS, QQYHRLPLS: 7.7 nM (6 of 6 replicates; controls 1 of 18)
- LSSISYLYESENKNSVA, EASTRES, QQYHRLPLS: 8.1 nM (6 of 6 replicates; controls 1 of 18)
- LSSISYWYESPNKNSVA, EASTRES, QQYHRLPLS: 14 nM (6 of 6 replicates; controls 0 of 18)
- KFSQSVLMESRNVNSVA, EASTRHS, QQYHRLPLS: 39 nM (4 of 6 replicates; controls 0 of 18)
- IAWQSWLYESRNKNSVA, GASTRES, QQYHRLPLI: 54 nM (6 of 6 replicates; controls 1 of 18)
- KSWQSLLYESRNKNSVA, WASTRES, QQYHRLPLS: 93 nM (2 of 6 replicates; controls 0 of 18)
- KSSWSVLTESRNKNSVA, WASTRES, QQYHSLPLS: 100 nM (2 of 6 replicates; controls 0 of 18)
- KSSQSPLDETRNKNSVA, DASTRES, QQYHRLPLS: 110 nM (5 of 6 replicates; controls 0 of 18)
- KFSQSDLYNSRNKNSVA, WASTRES, QQYHREPLS: 340 nM (5 of 6 replicates; controls 1 of 18)
- KSSQSLLYEGRNKNSVA, RASTRES, QQYGRLPLS: 350 nM (4 of 6 replicates; controls 1 of 18)
- KSSQLVLYESRNKNSVA, WASTRES, QQYHRLPLS: 490 nM (4 of 6 replicates; controls 0 of 18)
- DSSNSVLYESRNKNSVA, WASTRES, QQYHRLPVS: 610 nM (2 of 6 replicates; controls 0 of 18)
- KSSQSVLYESRNKNSVA, WASTRES, QQYHRCPLC: nd (0 of 6 replicates; controls 0 of 18)
- KSSQSVLMESRNKNSVA, WAATREN, QQYHRLPLA: nd (0 of 6 replicates; controls 0 of 18)

The first 2 variants above that were never detected:

* KSSQSVLYESRNKNSVA, WASTRES, QQYHRCPLC -> nd (0 of 6 replicates; controls 0 of 18)
* KSSQSVLMESRNKNSVA, WAATREN, QQYHRLPLA -> nd (0 of 6 replicates; controls 0 of 18)

Source: Li et al. 2023 (doi:10.1038/s41467-023-39022-2), MIT Lincoln Laboratory and A-Alpha Bio; data file from the FLAb repository.